Assay results published in ChEMBL document CHEMBL1123989, “Effects of addition of a 2-methyl group to ethyl nipecotates (beta-meperidines) on receptor affinities and opiate agonist/antagonist activities” (J Med Chem, 1988).

By UniProt entry, the sequences of proteins in these tests, tags left out. Where a name states a change or a piece, a line headed by the entry shows the natural chain unless it says otherwise.
UniProt P41144: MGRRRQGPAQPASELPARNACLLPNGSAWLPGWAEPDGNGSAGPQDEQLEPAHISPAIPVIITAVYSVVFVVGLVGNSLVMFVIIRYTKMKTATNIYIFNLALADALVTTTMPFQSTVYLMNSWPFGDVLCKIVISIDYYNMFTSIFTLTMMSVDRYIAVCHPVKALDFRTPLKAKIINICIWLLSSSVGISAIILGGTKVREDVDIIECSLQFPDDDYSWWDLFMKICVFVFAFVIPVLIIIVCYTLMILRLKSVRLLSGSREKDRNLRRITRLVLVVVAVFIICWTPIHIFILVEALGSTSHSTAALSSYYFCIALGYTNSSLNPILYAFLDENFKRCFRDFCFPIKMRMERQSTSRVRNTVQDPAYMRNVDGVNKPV

Target: Kappa-type opioid receptor (Cavia porcellus, UniProt P41144)
Test: Binding affinity at Opioid receptor kappa 1 in guinea pig brain membrane determined by using [3H]U-69593 as radioligand

CN(C(=O)Cc1ccccc1)[C@H]1CC[C@@]2(CCCO2)C[C@@H]1N1CCCC1
Kd: 4.3 nM
